Ab-14 light chain CDR variants: yeast mating affinities

Antigen: PDVDLGDISGINAS, a 14-residue peptide of the SARS-CoV-2 spike HR2 region.

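These sequences belong to a second round, designed from the earlier measurements on random variants of the parent. Several design methods are mixed in this list. The scFvs were displayed on barcoded MATa yeast, the peptide on MATalpha yeast. Pairs that bind mate more often; barcode pairs of the diploids are counted by sequencing. A regression on co-assayed BCL2-family reference pairs converts the normalised counts of each replicate to an apparent Kd. There are six technical replicates.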

Parent scFv Ab-14: VH joined to VL by three GGGGS repeats. Changes lie in the light chain CDRs alone.
VH: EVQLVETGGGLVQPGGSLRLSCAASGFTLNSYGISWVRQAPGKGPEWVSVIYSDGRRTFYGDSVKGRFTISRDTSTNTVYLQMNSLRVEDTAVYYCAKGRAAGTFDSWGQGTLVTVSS
VL: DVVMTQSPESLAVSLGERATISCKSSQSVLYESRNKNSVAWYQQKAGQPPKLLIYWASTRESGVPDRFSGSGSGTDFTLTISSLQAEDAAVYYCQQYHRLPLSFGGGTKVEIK

The parent's light chain CDRs are KSSQSVLYESRNKNSVA, WASTRES, QQYHRLPLS; each variant's own CDRs replace them letter for letter. Numbers give log10(Kd / nM), so 0 is 1 nM and 3 is 1 µM. Smaller is tighter. Averages over replicates are reported, and they cover detected replicates only. "nd" marks a missing value. The strain was present, yet no cells mated with the target were sequenced in any replicate, which points to weak or no binding. In the paper, a design with two or fewer of six values counts as a poor binder. The range of this assay differs from that of the first round, and the authors advise against merging the two. The parent sequence was in this pool as ten entries: three were never detected, three once, and four in most replicates, with averages from 0.34 to 2.37. Nonspecific signal, from three strains lacking the peptide, appeared in 4% of pairings of all light chain designs, centred on 2.64 (5% of these signals below 1.59); values are not corrected for it. The control count says in how many pairings with the empty strains this scFv gave a signal.

mean log10 Kd (nM)	seen in	signal with controls	CDR-L1	CDR-L2	CDR-L3
0.25	6 of 6	0 of 18	KSSQSELAESRNKNSVA	AATLRES	QQYHRLPLS
1.18	6 of 6	1 of 18	HITYGMMVAGRHSSSIA	QAEERAK	QQYDRLPLI
nd	0 of 6	1 of 18	KPSGSVLYEARNKQSVA	WASTRLS	QQYHRLPLS
0.52	6 of 6	0 of 18	HMSMLTLGGMRARNSVA	QMTTREN	QQYDRLPLS
2.19	6 of 6	1 of 18	KSSQSVLYESRDKNSVA	WASTRES	QPPHELPLS
0.40	6 of 6	1 of 18	MVTQMAMTGMMNKRSVA	NASTREN	QQYHRLPLI
0.89	6 of 6	1 of 18	MSSQSSLYESRNKNSVA	KADTRTS	QQYHRLPLS
1.27	6 of 6	0 of 18	KSLQSWLYESRNKNSVA	HASTREQ	QQYHRLPLM
1.94	3 of 6	0 of 18	KSEQSVLDEERNDNSVA	WASHRLS	QQYHRLPLS
0.21	6 of 6	2 of 18	KYSQSQLYEDRNVNAVA	NASQRMS	QQYHRLPLS
1.30	6 of 6	1 of 18	KFSQWVLYESRTSNSVA	NASTRES	QQYHRLPLS
0.37	6 of 6	3 of 18	KISQLVNFEGKNKNSVA	QMSTREA	QQYDRLPLS
1.14	6 of 6	1 of 18	KIQSHLSQDFAIWNNIA	DREQSAE	QQYHQLPLV
0.52	6 of 6	0 of 18	KLMQEQEYQSRMKNSVA	HASERES	QQYHRLPLS
0.29	6 of 6	0 of 18	KLSQSELYESRNKNSVA	EASTRES	QDYHRLPLS
2.00	6 of 6	0 of 18	KLSMVTGHMLMSKDNVA	EMETREN	QQYDRLPLS
0.45	6 of 6	0 of 18	KVSQSELYESRMKNSVA	NASQRES	QQYHRLPLS
1.11	6 of 6	3 of 18	KYSQSVLYESDNKNSVA	WASTRES	QQYHRLPLS
0.59	6 of 6	0 of 18	MFEGYNSEGEANNNNVA	DHNCGER	QQYYRLPLA
0.57	6 of 6	3 of 18	KLTQVTGYESYVRNSVA	QMSTRAE	QDYNRLPLS
1.71	6 of 6	0 of 18	MITAVLRGVGRDKNSVA	NAQTRES	QHYNRLPLS
0.15	6 of 6	0 of 18	KLSQSVGYESRMVNNVA	NASTREL	QQYHRLPLS
0.32	6 of 6	3 of 18	KFEQKVDYEHRTKNSVA	NASTRES	QQYHRLPLS
2.92	5 of 6	0 of 18	SISMLLNFEMKIGNNVA	QMETRVN	QQYDRLPLS
1.43	6 of 6	2 of 18	KISSMVRVGSTHSNSIA	EEAKRAD	QQYHRLPLA
2.24	1 of 6	0 of 18	KLSISYLFESQEKNSIA	ENSTRES	QHYHRLPLS
0.80	6 of 6	0 of 18	QIQGKLQEGGNQGANVA	QGVESKN	QQYYRLPLT
1.48	1 of 6	0 of 18	TIGGTLMYGYRNRSNVA	EVSQRLN	QQYDRLPLV
-0.07	6 of 6	0 of 18	KLEQSWLYESRNPNSVA	NASQRES	QQYHRLPLS
2.14	6 of 6	2 of 18	KSSQSVIYEDENKNSVA	EASTRES	QQYHRYPLS
0.28	6 of 6	0 of 18	TISQVMNELTRNTNNVA	DLTERTK	QQYFRLPLS
0.73	6 of 6	0 of 18	KSSGSVLGEDWNSNSVA	NASKRES	QQYHRLPLS
0.33	6 of 6	1 of 18	KMSQENPYESRNSNSVA	NASTREM	QQYHRLPLS
0.57	6 of 6	0 of 18	TLSQITGHMSMSKNNVA	EMETREN	QQYDRLPLS
1.34	6 of 6	1 of 18	KSPQSVLYESRNKNSVA	SASTRES	QQYHRLPLS
nd	0 of 6	0 of 18	IVSQLMLWGMHVKNSIA	EAELRLN	QQYDRLPLI
-0.13	6 of 6	1 of 18	KLSQSPLYESRNKNSVA	NASTRMS	QQYHRLPLS
0.78	6 of 6	1 of 18	KLQQSTLYESRNQNSVA	WASTRES	QQYHRLPLS
0.05	6 of 6	1 of 18	KLSQSYLYESRNKNSVA	NASTRES	QAYHRLPLS
2.04	2 of 6	1 of 18	KYSQSVYYESNNKNSVA	WASTRES	QQYHRLPLS
2.05	6 of 6	1 of 18	KSSQSVLYESRNKNSVA	WASHRES	QQYHRLPLS
-0.77	6 of 6	1 of 18	KLSQSVLYEDRNKNSVA	HASQRES	QQYHRLPLS
0.09	6 of 6	1 of 18	KLSQSWLYESRNTNSVA	NASQRES	QQYHRLPLS
2.34	5 of 6	0 of 18	KLSMSMLMESRHTNSVA	ENSTRES	QHYHRLPLS
0.95	6 of 6	3 of 18	KLYDMAAVTMNNIRNVA	DNSTREE	QQYHRLPLS
nd	0 of 6	0 of 18	KMSQSVLYESRFLNSVA	YASTRQN	QQYHRLPES
1.49	6 of 6	0 of 18	KQSQSVLYESRNKNSVA	MASTRES	QQYDRLPLS
1.22	6 of 6	0 of 18	TISQMTSLFEQSINNVA	EVSTREN	QQYDRLPLA
2.34	1 of 6	0 of 18	MIHESYGLMSHKQSSIA	DNSTREE	QQYDRLPLS
1.75	6 of 6	0 of 18	ALSHPSDSWQEHQNSIA	DDNLSLT	QQYHQLPLS
1.11	6 of 6	1 of 18	SLYELSVELSGKTHSVA	DNSTRGD	QQYFRLPLE
0.55	6 of 6	0 of 18	RVSSMLMAGGIHYNNIA	NTKVLEY	QQYMRLPLG
1.20	6 of 6	0 of 18	KLYMSTGYESRNMDSIA	DNSTRGR	QQYHRLPLS
1.99	2 of 6	0 of 18	KSSQSHLYVSRNKNSVA	WASTRES	QQYHRLPLS
0.53	6 of 6	2 of 18	TISQSTYIETFNKNNVA	QTSTREE	QDYDRLPLS
-0.09	6 of 6	1 of 18	KLSQSFLYESRNKNSVA	EASTRMS	QQYHRLPLS
0.86	6 of 6	1 of 18	KIMQSLNYESFQKNSVA	GQETRER	QSYHRLPLS
0.01	6 of 6	0 of 18	KSSISYLYESMNPNSVA	EASTREQ	QQYHRLPLS
-0.19	6 of 6	3 of 18	KLPQSVLYESRNKNSVA	GASTREV	QQYHRLPLS
1.67	6 of 6	0 of 18	KSSQSVLYESRNKNSVA	QASTRES	QQYTRLPLS
nd	0 of 6	0 of 18	KLSQSVPYESRNKNSVA	WAKTRES	QQYHRGPLS
-0.32	6 of 6	0 of 18	KLSQSVLYESRNKNNVA	GASTRES	QQYHRLPLS
-0.30	6 of 6	0 of 18	KSSQSWLYESRNKNSVA	GASMREV	QQYHRLPLS
0.32	6 of 6	1 of 18	HLSKPWQLGHPSTNAVA	NMDVTMT	QQYSRLPLS

Excerpt, the first 9 entries:

| CDR-L1 | CDR-L2 | CDR-L3 | mean log10 Kd (nM) | seen in | signal with controls |
|---|---|---|---|---|---|
| KSSQSELAESRNKNSVA | AATLRES | QQYHRLPLS | 0.25 | 6 of 6 | 0 of 18 |
| HITYGMMVAGRHSSSIA | QAEERAK | QQYDRLPLI | 1.18 | 6 of 6 | 1 of 18 |
| KPSGSVLYEARNKQSVA | WASTRLS | QQYHRLPLS | nd | 0 of 6 | 1 of 18 |
| HMSMLTLGGMRARNSVA | QMTTREN | QQYDRLPLS | 0.52 | 6 of 6 | 0 of 18 |
| KSSQSVLYESRDKNSVA | WASTRES | QPPHELPLS | 2.19 | 6 of 6 | 1 of 18 |
| MVTQMAMTGMMNKRSVA | NASTREN | QQYHRLPLI | 0.40 | 6 of 6 | 1 of 18 |
| MSSQSSLYESRNKNSVA | KADTRTS | QQYHRLPLS | 0.89 | 6 of 6 | 1 of 18 |
| KSLQSWLYESRNKNSVA | HASTREQ | QQYHRLPLM | 1.27 | 6 of 6 | 0 of 18 |
| KSEQSVLDEERNDNSVA | WASHRLS | QQYHRLPLS | 1.94 | 3 of 6 | 0 of 18 |

Source: Li et al. 2023 (doi:10.1038/s41467-023-39022-2), MIT Lincoln Laboratory and A-Alpha Bio; data file from the FLAb repository.